Molecular target: soluble B7-2 (sB7-2), human B7-2 extracellular domain fused to His6-tagged human IgG1 Fc (human) (UniProt P42081)
Assay: SPR (BIAcore 3000, 25°C), sCD28 immobilized on CM5 chip, sB7-2 injected

Protein sequences, listed by entry. Tags and fused reporters are not part of them. Residues count along the entry.
UniProt P42081, 20-239 limits assumed: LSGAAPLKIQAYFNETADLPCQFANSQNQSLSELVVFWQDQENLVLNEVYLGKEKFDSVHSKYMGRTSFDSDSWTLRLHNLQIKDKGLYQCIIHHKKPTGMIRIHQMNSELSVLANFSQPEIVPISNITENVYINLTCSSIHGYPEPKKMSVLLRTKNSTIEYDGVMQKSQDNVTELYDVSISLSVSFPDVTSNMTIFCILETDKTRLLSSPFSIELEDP

## soluble CD28 (sCD28), human CD28 extracellular domain fused to His6-tagged human IgG1 Fc (from UniProt P10747 19-152) (Fc fusion)
  Kd: 19 nM

Source: patent EP2363413A1 (YISSUM RESEARCH DEVELOPMENT COMPANY OF THE HEBREW …, dated 2011)
